This note sets out measurements from patent US6133307A, “Certain benzofuranyl-N-[pyrrolidin-1-YL]-N-methyl-acetamide derivatives useful as opioid agonists” (dated 2000).

The chains behind the UniProt entries cited, without tags or fusion partners. Residues count along the entry.
UniProt G1SJ19, 1-383: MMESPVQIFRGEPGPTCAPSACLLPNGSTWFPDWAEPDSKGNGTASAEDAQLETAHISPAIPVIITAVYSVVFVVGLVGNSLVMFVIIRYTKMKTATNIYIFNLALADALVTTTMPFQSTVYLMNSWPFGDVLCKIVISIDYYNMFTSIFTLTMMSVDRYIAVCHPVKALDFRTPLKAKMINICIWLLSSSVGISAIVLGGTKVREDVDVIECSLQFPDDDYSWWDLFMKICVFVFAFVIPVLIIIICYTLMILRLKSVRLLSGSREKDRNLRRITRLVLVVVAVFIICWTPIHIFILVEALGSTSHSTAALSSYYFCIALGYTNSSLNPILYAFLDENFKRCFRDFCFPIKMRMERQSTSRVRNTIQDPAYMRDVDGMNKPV

One assay deals with K-receptor (Oryctolagus cuniculus, UniProt G1SJ19). As to the kind of experiment: Rabbit vas deferens assay. To be noted: ratio to the parent kappa agonist.
Regarding `CN(C(=O)Cc1cccc2occc12)[C@H](CN1CC[C@H](O)C1)c1ccccc1`, the “relative potency: EC50 of the compound/EC50 of [5R-(5α,7α,8β)]-N-methyl-N-[7-(1-pyrrolidinyl)-1-oxaspiro-[4,5]dec-8-yl]-4-benzofuranacetamide, monohydrochloride” value (shortened to “relative potency: EC50”) is reported as 0.28.

`CN(C(=O)Cc1coc2ccccc12)[C@H](CN1CCCC1)c1ccccc1`: the “relative potency: EC50” value is 1.18.

With `CN(C(=O)Cc1ccc(S(C)(=O)=O)cc1)[C@H](CN1CCCC1)c1ccccc1`, the “relative potency: EC50” value turned out to be 1.38.

As to `CN(C(=O)Cc1cccc2occc12)[C@H](CN1CCCC1)c1ccccc1`, the “relative potency: EC50” value is 6.92.

`CN(C(=O)Cc1ccc(S(C)(=O)=O)cc1)[C@H](CN1CC[C@H](O)C1)c1ccccc1`: the “relative potency: EC50” value was found to be 0.04.

As to `CN(C(=O)Cc1coc2ccccc12)[C@H](CN1CC[C@H](O)C1)c1ccccc1`, the “relative potency: EC50” value is given as 0.056.

Turning to `CN(C(=O)C1C(c2ccccc2)=C1c1ccccc1)[C@H](CN1CC[C@H](O)C1)c1ccccc1`, the “relative potency: EC50” value was 1.5.

In the case of `CO[C@H]1CCN(C[C@H](c2ccccc2)N(C)C(=O)Cc2cccc3occc23)C1`, the “relative potency: EC50” value is recorded as 1.17.

For `CN(C(=O)Cc1ccccc1)[C@H](CN1CC[C@H](O)C1)c1ccccc1`, the “relative potency: EC50” value is recorded as 1.6.

Turning to `CN(C(=O)C1C(c2ccccc2)=C1c1ccccc1)[C@H](CN1CCCC1)c1ccccc1`, the “relative potency: EC50” value is given as 1.43.

Staying with this assay, now noted: read-out: agonist functional activity EC50 (LVD).
As to `CN(C(=O)C1C(c2ccccc2)=C1c1ccccc1)C1CCC2(CCCO2)CC1N1CCCC1` (centres unmarked), the EC50 was 12 nM.
